Our source for the IC50 values is ChEMBL document CHEMBL1133577, “Design and synthesis of piperazine-based matrix metalloproteinase inhibitors” (J Med Chem, 2000).

Sequences of proteins named here, by UniProt entry; tags and fusion partners are left off. A change or cut given only in a name is not applied to a line headed by its entry.
UniProt P08254: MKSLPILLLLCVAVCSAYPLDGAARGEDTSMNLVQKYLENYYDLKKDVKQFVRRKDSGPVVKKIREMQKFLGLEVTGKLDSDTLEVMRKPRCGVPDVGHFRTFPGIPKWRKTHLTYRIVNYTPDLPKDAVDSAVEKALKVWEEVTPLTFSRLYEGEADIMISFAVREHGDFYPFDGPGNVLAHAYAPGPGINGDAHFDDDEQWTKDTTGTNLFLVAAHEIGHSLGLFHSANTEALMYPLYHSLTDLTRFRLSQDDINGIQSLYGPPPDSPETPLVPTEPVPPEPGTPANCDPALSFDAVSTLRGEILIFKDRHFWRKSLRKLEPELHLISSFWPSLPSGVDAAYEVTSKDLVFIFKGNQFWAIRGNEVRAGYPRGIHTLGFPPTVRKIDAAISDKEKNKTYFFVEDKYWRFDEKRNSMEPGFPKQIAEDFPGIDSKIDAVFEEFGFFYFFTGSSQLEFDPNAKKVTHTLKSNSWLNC
UniProt P14780: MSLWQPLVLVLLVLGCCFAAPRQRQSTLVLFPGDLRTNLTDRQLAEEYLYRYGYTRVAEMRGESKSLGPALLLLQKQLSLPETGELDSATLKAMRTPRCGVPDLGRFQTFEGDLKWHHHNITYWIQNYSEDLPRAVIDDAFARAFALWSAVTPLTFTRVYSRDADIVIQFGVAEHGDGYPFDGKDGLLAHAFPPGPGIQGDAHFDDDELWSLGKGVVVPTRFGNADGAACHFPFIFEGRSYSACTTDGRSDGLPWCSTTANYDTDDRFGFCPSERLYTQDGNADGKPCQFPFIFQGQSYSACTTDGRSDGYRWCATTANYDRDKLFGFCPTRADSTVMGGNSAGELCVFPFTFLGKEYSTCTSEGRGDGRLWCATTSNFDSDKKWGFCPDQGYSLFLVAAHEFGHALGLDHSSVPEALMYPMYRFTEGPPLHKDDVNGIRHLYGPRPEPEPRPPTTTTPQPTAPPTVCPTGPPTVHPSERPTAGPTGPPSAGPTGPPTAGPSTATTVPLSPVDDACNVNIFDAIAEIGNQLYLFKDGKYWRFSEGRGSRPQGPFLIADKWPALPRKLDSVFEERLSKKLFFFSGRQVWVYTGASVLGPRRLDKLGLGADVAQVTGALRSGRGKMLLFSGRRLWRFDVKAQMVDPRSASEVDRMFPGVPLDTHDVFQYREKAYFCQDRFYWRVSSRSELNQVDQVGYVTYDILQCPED

By IC50 is commonly meant the concentration that inhibits the measured activity by half.

In one assay the target is Collagenase 3 (Homo sapiens, UniProt P45452). Nature of the assay: In vitro inhibitory activity against matrix metalloprotease-13 (MMP-13).
The target in the next assay is T1, Interstitial collagenase (Homo sapiens, UniProt P03956).
T1 sequence (P03956 whole entry): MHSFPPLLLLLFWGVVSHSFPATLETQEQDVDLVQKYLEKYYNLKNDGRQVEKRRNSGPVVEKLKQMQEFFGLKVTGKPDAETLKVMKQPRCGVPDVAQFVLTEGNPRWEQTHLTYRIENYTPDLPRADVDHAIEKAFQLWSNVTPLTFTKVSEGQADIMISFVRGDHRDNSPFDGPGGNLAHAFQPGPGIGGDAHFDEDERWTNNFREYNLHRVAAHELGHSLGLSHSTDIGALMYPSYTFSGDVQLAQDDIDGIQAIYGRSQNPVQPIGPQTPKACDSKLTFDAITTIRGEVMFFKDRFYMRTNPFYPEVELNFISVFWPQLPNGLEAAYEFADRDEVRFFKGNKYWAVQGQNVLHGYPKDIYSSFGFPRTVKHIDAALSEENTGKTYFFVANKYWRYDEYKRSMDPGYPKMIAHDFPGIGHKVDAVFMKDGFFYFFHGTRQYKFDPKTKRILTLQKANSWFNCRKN
Nature of the assay: In vitro inhibitory activity against matrix metalloprotease-1 (MMP-1). The method, boiled down:
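Recombinant human MMP-1 expressed in E. coli BL21(DE3), refolded from inclusion bodies, affinity-purified and trypsin-activated. 10 nM enzyme incubated with 8 µM Mca-Pro-Leu-Gly-Leu-Dpa-Ala-Arg-NH2 in 50 mM Tris-HCl, 10 mM CaCl2, 0.15 M NaCl, 0.05% Brij, 20-30 min, 37 °C, with varying inhibitor. Quenched with 50 mM EDTA; fluorescence read at ex 328/em 393 nm. Triplicates; IC50 from 4-parameter logistic fit.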

The target in another assay is Stromelysin-1 (Homo sapiens, UniProt P08254). Nature of the assay: In vitro inhibitory activity against matrix metalloprotease-3 (MMP-3).
Assay [1] has as its target Matrix metalloproteinase-9 (Homo sapiens, UniProt P14780). The assay can be described thus: In vitro inhibitory activity against matrix metalloprotease-9 (MMP-9).

At Collagenase 3, `CCCCCC(=O)N1CCN(S(=O)(=O)c2ccc(OC)cc2)C(C(=O)NO)C1` (configuration not stated) showed an IC50 of 1.7 nM.
Consider `COc1ccc(S(=O)(=O)N2CCN(C)CC2C(=O)NO)cc1` (configuration not stated), for which, at Interstitial collagenase, the IC50 was found to be 1260 nM.
Same read-out and setting: to `CCCN(CC1CC1)C(=O)N1CCN(S(=O)(=O)c2ccc(OC)cc2)C(C(=O)NO)C1` (configuration not stated) belongs 493 nM.
`COc1ccc(S(=O)(=O)N2CCN(C(=O)OCc3ccccc3)CC2C(=O)NO)cc1` (configuration not stated): half-maximal inhibition against Stromelysin-1 (IC50) was put at 18 nM.
Regarding `COc1ccc(S(=O)(=O)N2CCN(C(=O)COc3ccccc3)CC2C(=O)NO)cc1` (configuration not stated), at Collagenase 3, the IC50 is 2.1 nM. In other words, the single-digit nanomolar range.
For `COc1ccc(S(=O)(=O)N2CCN(C(=O)c3ccccc3)CC2C(=O)NO)cc1` (configuration not stated), the IC50 (in assay [1]; against Collagenase 3) was 3 nM each time.
